Assay [1] has as its target T1, Fatty-acid amide hydrolase 1 (Rattus norvegicus, UniProt P97612). Briefly: Inhibition of rat FAAH expressed in Escherichia coli.
For assay [2], the target named is T1, Fatty-acid amide hydrolase 1. Put plainly: Inhibition of rat FAAH expressed in Escherichia coli at pH 9.0.

The chains behind the UniProt entries cited, without tags or fusion partners.
UniProt P97612, whole entry: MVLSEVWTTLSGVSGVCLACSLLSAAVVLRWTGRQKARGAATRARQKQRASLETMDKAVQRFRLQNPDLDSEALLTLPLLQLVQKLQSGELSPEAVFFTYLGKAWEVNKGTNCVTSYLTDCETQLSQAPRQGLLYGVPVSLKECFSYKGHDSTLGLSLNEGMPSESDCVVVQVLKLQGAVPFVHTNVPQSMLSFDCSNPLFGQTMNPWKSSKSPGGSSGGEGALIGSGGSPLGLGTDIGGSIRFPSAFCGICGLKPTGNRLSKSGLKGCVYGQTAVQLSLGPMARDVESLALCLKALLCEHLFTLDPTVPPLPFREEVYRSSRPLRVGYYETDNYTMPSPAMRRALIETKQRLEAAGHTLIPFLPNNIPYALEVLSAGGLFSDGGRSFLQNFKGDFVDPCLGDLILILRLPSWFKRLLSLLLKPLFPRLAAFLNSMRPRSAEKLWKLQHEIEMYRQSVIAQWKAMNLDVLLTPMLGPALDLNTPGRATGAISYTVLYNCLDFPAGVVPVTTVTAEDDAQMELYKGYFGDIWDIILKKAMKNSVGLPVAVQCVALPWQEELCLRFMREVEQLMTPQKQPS

What is called IC50 is the midpoint of a concentration-inhibition curve. The low end stands for greater potency, the high end for weaker potency. In assay [1], `O=C(CCCCCCc1ccccc1)c1ncc(-c2ccccc2)o1` had an IC50 of 80 nM.

`COC(=O)c1cccc(-c2cnc(C(=O)CCCCCCc3ccccc3)o2)n1` came in with a concentration for half-maximal inhibition (IC50) in assay [1] of 8 nM.

As usually defined, the Ki is the equilibrium dissociation constant of an inhibitor or competing ligand from its target. Low values mean tighter binding, high ones weaker binding. Take `COC(=O)c1nnc(C(=O)CCCCCCc2ccccc2)s1`: the Ki in assay [2] was determined as 1 nM.

Compound `O=C(O)c1cccc(-c2nnc(C(=O)CCCCCCc3ccccc3)s2)n1` came in with a Ki in assay [2] of 2.5 nM.

The values above are taken from ChEMBL document CHEMBL1155875, “Optimization of the central heterocycle of alpha-ketoheterocycle inhibitors of fatty acid amide hydrolase” (J Med Chem, 2008).
